The test has as its target Recombinant HssAChE (Homo sapiens, UniProt P22303). The class given is biochemical. The conditions noted are these: pH 7.4; read-out: HssAChE IC50 ± SD.

Amino acid sequences for entries named in this document (tags omitted). Residues count along the entry.
UniProt P22303, 32-614: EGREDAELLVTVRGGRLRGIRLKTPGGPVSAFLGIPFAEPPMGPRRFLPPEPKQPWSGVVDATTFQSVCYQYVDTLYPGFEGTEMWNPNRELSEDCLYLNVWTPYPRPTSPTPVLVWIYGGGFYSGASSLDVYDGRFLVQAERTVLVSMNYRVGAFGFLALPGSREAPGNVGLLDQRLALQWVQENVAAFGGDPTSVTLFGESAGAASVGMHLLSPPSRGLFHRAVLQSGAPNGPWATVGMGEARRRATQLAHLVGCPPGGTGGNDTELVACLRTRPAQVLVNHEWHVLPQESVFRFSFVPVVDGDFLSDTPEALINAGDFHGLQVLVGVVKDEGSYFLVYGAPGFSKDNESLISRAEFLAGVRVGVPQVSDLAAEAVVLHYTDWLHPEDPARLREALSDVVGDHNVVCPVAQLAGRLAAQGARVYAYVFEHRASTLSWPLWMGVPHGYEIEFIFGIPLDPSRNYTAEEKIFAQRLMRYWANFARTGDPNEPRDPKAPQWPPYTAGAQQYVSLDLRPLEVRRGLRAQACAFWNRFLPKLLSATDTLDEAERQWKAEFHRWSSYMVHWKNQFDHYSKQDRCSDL

This is an account of results in article PMC6225275 (Molecules : A Journal of Synthetic Chemistry and Natural …, 2018).

What is called IC50 is the concentration that gives 50% inhibition. Take `C[n+]1ccccc1/C=N/O` [Compound 1, pralidoxime, reference compound]: the IC50 worked out at 878 ± 171 µM.
